Assay results published in PubChem BioAssay AID1008 (NMMLSC, 2008).
This is a selection; strong and weak results do not stand in their true shares. Some results for these compounds are left out of this collection, so the calls shown say nothing about other tests. The source made the active and inactive calls. Cut-off read from the data, not from the text of the source: active = inhibition above about 40%.

By UniProt entry, the sequences of proteins in these tests, tags left out.
UniProt Q16548, whole entry: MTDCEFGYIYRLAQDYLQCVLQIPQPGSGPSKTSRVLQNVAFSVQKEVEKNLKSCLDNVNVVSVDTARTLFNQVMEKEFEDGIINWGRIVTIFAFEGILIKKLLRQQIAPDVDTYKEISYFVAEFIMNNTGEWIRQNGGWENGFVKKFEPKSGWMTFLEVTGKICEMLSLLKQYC

These compounds were tested against Bcl-2-related protein A1 (Homo sapiens) (UniProt Q16548) (assay: inhibitors of Bim binding to Bfl-1, primary screen, biochemical, multiplexed, bead-based flow cytometry (AID 1008;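 note: 0% = wells without compound plus tracer and 100% = blocker peptide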)). Conditions: Bim-Bfl-1 binding inhibition, at 10 µM, active compounds read high.

SMILES	inhibition
Cc1ccccc1C(=O)NCC1(N2CCCCC2)CCCCC1	inactive: 3%
CN(C)C1CCCC1OC(=O)C(O)(c1ccccc1)c1ccccc1 (centres undefined)	inactive: -15%
C=CCN1CCN(CCOC(=O)C(O)(c2ccccc2)c2ccccc2)CC1	inactive: -2%
CCN1CCCC(OC(=O)C2(O)c3ccccc3C=Cc3ccccc32)C1 (centres undefined)	inactive: -1%
O=C(NCC1(N2CCCCC2)CCCCC1)c1cc([N+](=O)[O-])ccc1Cl	inactive: 7%
CC(C)N1C(=O)CC2(CCN(CCOC(=O)C(O)(c3ccccc3)c3ccccc3)CC2)C1=O	inactive: -1%
O=C(OC1CN2CCC1CC2)C(CO)(c1ccccc1)c1ccccc1 (centres undefined)	inactive: -15%
CN(C)c1cccc(C(=O)NCC2(N(C)C)CCCCC2)c1	inactive: -19%
COc1cccc(C(=O)NCC2(N3CCCCC3)CCCCC2)c1	inactive: -6%
